# Patent US11702409B2, “Pyrazolyl derivatives useful as anti-cancer agents” (NOVARTIS AG, priority 2019, dated 2023)
# Biological target: KRasG12C (M1-K169, biotinylated on the N-terminus) (Homo sapiens (Human), UniProt P01116, G12C)
# Experiment: Covalent competition assay (scintillation proximity assay, competition with radiolabeled covalent probe Compound B)
# Format: binding
# Details: read-out: Covalent Competition Assay IC50; in vitro KRASG12C activity; 10 nM KRasG12C:GDP, 25 nM radio-ligand and 475 nM unlabelled ligand, incubated 2 hours
row,Compound,IC50 [nM]
1,C=CC(=O)N1CC2(CC(n3nc(-c4ccc5c(cnn5CCN5CC(OC)C5)c4)c(-c4c(Cl)c(C)cc5[nH]ncc45)c3C)C2)C1 [Example 81a],110
2,C=CC(=O)N1CC2(CC(n3nc(-c4ccc5c(cnn5CCN5CC(OC)C5)c4)c(-c4c(Cl)c(C)cc5[nH]ncc45)c3C)C2)C1 [Example 81b],2600
3,C=CC(=O)N1CC2(CC(n3nc(-c4cc(C)n(CCN(C)C)n4)c(-c4c(Cl)c(C)cc5[nH]ncc45)c3C)C2)C1 [Example 93a],2100
4,C=CC(=O)N1CC2(CC(n3nc(-c4cc(C)n(CCN(C)C)n4)c(-c4c(Cl)c(C)cc5[nH]ncc45)c3C)C2)C1 [Example 93b],9500
